Assay results taken from patent US11912701B2, “Protein kinase inhibitors for promoting liver regeneration or reducing or preventing hepatocyte death” (HEPAREGENIX GMBH, priority 2018, dated 2024).

Protein sequences, listed by entry. Tags and fused reporters are not part of them. Residues count along the entry.
UniProt P45983, 1-384 isoform P45983-2: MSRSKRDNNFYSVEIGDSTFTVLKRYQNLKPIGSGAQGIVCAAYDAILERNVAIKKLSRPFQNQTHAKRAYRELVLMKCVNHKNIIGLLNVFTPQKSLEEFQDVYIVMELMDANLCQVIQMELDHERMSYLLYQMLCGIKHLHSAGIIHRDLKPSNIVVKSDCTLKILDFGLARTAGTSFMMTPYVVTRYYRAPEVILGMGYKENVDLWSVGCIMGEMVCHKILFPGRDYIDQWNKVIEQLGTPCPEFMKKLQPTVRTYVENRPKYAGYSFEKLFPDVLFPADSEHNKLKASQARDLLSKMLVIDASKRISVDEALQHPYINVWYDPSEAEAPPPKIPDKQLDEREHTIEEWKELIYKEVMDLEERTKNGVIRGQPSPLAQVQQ
UniProt P15056, whole entry, species assumed: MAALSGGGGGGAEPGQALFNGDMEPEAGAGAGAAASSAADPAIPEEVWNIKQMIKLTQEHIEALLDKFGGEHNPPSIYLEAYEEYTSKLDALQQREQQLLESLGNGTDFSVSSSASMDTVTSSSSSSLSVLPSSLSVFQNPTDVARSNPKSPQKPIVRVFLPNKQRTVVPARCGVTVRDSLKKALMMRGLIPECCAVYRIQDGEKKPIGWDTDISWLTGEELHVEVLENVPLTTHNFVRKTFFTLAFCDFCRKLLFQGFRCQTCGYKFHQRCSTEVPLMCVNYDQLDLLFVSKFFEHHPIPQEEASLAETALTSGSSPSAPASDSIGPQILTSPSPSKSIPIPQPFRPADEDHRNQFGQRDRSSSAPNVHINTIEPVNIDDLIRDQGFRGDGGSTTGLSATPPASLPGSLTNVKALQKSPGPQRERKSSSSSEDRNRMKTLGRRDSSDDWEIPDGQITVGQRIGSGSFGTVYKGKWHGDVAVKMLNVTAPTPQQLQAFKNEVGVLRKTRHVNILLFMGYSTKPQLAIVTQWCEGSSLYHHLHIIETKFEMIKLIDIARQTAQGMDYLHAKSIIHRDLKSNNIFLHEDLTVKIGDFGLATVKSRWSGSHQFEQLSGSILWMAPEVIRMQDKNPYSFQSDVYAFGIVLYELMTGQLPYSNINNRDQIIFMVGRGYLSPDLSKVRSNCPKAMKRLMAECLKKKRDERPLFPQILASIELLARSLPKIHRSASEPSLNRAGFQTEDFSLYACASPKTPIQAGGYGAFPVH

What was measured:
MKK7 = target: T1, MKK7 (Homo sapiens, UniProt O14733); assay: KINOMEscan competition binding assay, MKK7; conditions: ratio PoC (off-target)/PoC (MKK4)
T1 construct: M1/R419; host or cells: HEK-293
T1 sequence (O14733 1-419): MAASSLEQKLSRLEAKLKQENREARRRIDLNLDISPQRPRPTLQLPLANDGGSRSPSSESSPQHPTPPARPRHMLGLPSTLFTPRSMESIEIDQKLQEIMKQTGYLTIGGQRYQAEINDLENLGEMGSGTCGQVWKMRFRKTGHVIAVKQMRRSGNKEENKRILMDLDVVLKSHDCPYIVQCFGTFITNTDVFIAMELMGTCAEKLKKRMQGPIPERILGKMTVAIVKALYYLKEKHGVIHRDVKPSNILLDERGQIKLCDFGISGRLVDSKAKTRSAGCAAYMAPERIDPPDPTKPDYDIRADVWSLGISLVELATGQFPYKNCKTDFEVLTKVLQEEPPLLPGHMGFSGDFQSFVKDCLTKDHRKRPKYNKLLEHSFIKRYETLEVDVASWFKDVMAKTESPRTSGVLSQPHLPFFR

JNK1 [1] = target: T2, JNK1 (Homo sapiens, UniProt P45983); assay: 33PanQinase enzyme assay, JNK1; format: biochemical; parameters: purchased ProQinase GmbH, Freiburg, Germany (33PanQinase Assay Service); conditions: ratio IC50(JNK1)/IC50(MKK4)
BRaf = target: T3, BRaf (Homo sapiens, UniProt P15056); assay: KINOMEscan competition binding assay, BRaf; conditions: ratio PoC (off-target)/PoC (MKK4)
T3 construct: purchased ProQinase GmbH, Freiburg, Germany (33PanQinase Assay Service)

JNK1 [2] = target: T2, JNK1; assay: KINOMEscan competition binding assay, JNK1; parameters: M1/Q384; host or cells: HEK-293; conditions: ratio PoC (off-target)/PoC (MKK4)

Compound: O=C(c1cccc(NS(=O)(=O)Cc2ccccc2)c1F)c1c[nH]c2ncc(-c3cc4c(cc3Cl)OCCO4)cc12 [Example 127, N-(3-(5-(7-chloro-2,3-dihydrobenzo[b][1,4]dioxin-6-yl)-1H-pyrrolo[2,3-b]pyridine-3-carbonyl)-2-fluorophenyl)-1-phenylmethanesulfonamide]
- selectivity based on % Ctrl @100 nM vs. MKK7 (MKK7): ++ (100 ≥ ratio > 10)
- Selectivity JNK1, IC50(off-target)/IC50(MKK4) (JNK1 [1]): + (10 ≥ IC50(off-target)/IC50(MKK4) > 3)
- selectivity based on % Ctrl @100 nM vs. Braf (BRaf): ++ (100 ≥ ratio > 10)
- selectivity based on % Ctrl @100 nM vs. JNK1 (JNK1 [2]): ++ (100 ≥ ratio > 10)
